Test results: PubChem BioAssay AID463111 (Johns Hopkins Ion Channel Center, 2010)
This is a selection; strong and weak results do not stand in their true shares. Active and inactive are the calls of the source.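 The calls were made as follows: active = B-score of the integrated calcium signal more than 4 SD below the library mean, with starting fluorescence not abnormally high; inactive = the rest.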

Experiment: RGS4 potentiators or activators, primary screen, cell-based, HEK293 M3R inducible RGS4, calcium flux (AID 463111);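 as to B-score: negative B-score means reduced calcium response which marks RGS4 activation or potentiation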
Details: HEK293 M3R/inducible RGS4, carbachol calcium flux Fluo4, at 10 µM; stronger effect = lower value
Method in brief: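 test system = M3R-expressing HEK293 line, RGS4 induced by doxycycline | probe or stimulus = carbachol at ECmax as muscarinic agonist stimulus | timing = dye loading 30 min 37 °C, buffer rest 30 min RT | signal = calcium dye Fluo4 fluorescence | evaluation = B score from integrated fluorescence ratio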

SMILES | outcome | B-score
Cc1ccc(OCC(C)C)c(CN(CCCl)CCCl)c1 | inactive | –
Cc1ccc(C(=O)NCC2(N3CCCCC3)CCCCC2)o1 | inactive | –
Fc1ccccc1NC1CCN(Cc2ccccc2)CC1 | inactive | –
COc1cc(OC)cc(C(=O)NCC2(N3CCCCC3)CCCCC2)c1 | inactive | –
CN(C)c1ccc(C(=O)NCC2(N3CCCCC3)CCCCC2)cc1 | inactive | –
CCN1CCC(Nc2cccc(F)c2)CC1 | inactive | –
CC(C)(C)OC(=O)N1CCC(Nc2ccccc2)CC1 | inactive | –
O=C(O)C1(Nc2ccccc2)CCN(Cc2ccccc2)CC1 | inactive | –
CCCOc1ccc(C(=O)NCC2(N(C)C)CCCCC2)cc1 | inactive | –
CCOc1ncccc1C(=O)NCC1(N2CCOCC2)CCCCC1 | inactive | –
CN1CCC(Nc2ccc(F)c(Cl)c2)CC1 | inactive | –
CN1CCC(Nc2ccc(Cl)cc2)CC1 | inactive | –
CCCOc1ccc(C)cc1CN(CCCl)CCCl | – | active: -7.79
COc1cc(OC)cc(C(=O)NCC2(N3CCOCC3)CCCCC2)c1 | inactive | –
COc1cccc(C(=O)N(c2cc(C)cc(C)c2)C2CCN(C(=O)OC(C)(C)C)CC2)c1 | inactive | –
CCC(CO)(C(=O)OC1CN2CCC1CC2)c1ccccc1 (stereo unspecified) | inactive | –
COc1ccc(C(=O)NCC2(N3CCOCC3)CCCCC2)cc1OC | inactive | –
O=C(OC1CN2CCC1CC2)C1c2ccccc2C=Cc2ccccc21 (stereo unspecified) | – | active: -9.04
CCc1cc(C(=O)NCC2(N3CCCCC3)CCCCC2)sc1C | inactive | –
CCOC(=O)N1CCC(Nc2ccc(C)cc2)CC1 | inactive | –
N/C(=N\O)c1c(N)no[n+]1[O-] | inactive | –
N#Cc1ccc(C(=O)NCC2(N3CCCCC3)CCCCC2)cc1 | inactive | –
CC(C)(C)OC(=O)N1CCC(N(C(=O)c2ccccc2)c2ccc(Cl)cc2)CC1 | inactive | –
CN(C)C1(CNC(=O)c2cccc(C#N)c2)CCCCC1 | inactive | –
c1ccc(CN2CCC(Nc3ccccc3)CC2)cc1 | inactive | –
CCCN1CCC(Nc2cc(OC)cc(OC)c2)CC1 | inactive | –
